{"sequences": {"note": "Protein sequences, listed by entry. Tags and fused reporters are not part of them. Residues count along the entry.", "UniProt Q8N5Z0, 30-425 limits assumed": "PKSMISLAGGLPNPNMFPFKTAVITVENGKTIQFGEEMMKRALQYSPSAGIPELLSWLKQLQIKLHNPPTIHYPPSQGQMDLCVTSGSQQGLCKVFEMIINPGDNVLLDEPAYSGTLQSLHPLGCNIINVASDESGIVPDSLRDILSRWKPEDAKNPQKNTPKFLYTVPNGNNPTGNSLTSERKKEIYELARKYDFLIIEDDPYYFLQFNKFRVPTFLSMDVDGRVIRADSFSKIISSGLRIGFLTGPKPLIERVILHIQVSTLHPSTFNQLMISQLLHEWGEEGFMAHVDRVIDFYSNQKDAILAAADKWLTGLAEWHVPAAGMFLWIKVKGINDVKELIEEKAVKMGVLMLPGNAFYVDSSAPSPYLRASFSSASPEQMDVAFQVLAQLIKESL"}, "source": "patent US10793582B2", "about": "“Bicyclic heterocyclic compound” (MITSUBISHI TANABE PHARMA CORPORATION, priority 2015, dated 2020)", "target": "human recombinant KAT-II (Homo sapiens (Human), UniProt Q8N5Z0)", "test": "KAT-II inhibitory test", "conditions": "read-out: KAT-II inhibitory test IC50, 3.0 μmol/L kynurenine, 37° C. for 1 hr, kynurenic acid by HPLC", "procedure": "The compounds described in the above-mentioned Examples were used for the KAT-II inhibitory test.\nHuman recombinant KAT-II was prepared as follows.\nHis tag and maltose binding protein tag were added to the N-terminal of a gene encoding human KAT-II (Genbank accession number: AF481738.1), and the obtained gene was incorporated into pET32 (Merck Nihon Millipore), which is an Escherichia coli expression vector. Human recombinant KAT-II produced by BL21(DE3) Escherichia coli (Merck Nihon Millipore, 69450) transformed using the plasmid was purified using an amylose resin column (New England Biolabs, #800-21 L).\nThe inhibitory action of the test compound on human recombinant KAT-II was determined by the following method. […]\nThe resultant kynurenic acid was quantified as follows by high performance liquid chromatography. An enzyme reaction mixture was separated by an octadecylsilane reversed-phase column (SC-50DS, Eicom Corporation; mobile phase: 250 mmol/L zinc acetate, 50 mmol/L sodium acetate, and 5.0% acetonitrile (pH 6.2)) incubated at 30° C., and kynurenic acid was quantified using a fluorescence detector (RF-20Axs, Shimadzu Corporation) at excitation wavelength 354 nm, detection wavelength 460 nm. […]"}
{"smiles": "COC1(c2cnc3nc(N4CCC[C@@H]4C(=O)NCc4ccccc4)sc3c2)COC1", "values": [{"measurement": "IC50", "value": 770, "unit": "nM"}]}
